Assay results reported in patent publication US4411834A, “Preparation of II-deoxy anthracycline antibiotics” (Farmitalia Carlo Erba, S.p.A., priority 1978, dated 1983).

Experiment: Toxic deaths in leukemia-bearing mice
Assay type: in vivo
Conditions: 100 mg/kg, intraperitoneally on day 1; macroscopic autopsy findings
Experimental: The new glycosides were tested against HeLa cells in vitro (time of exposure to the drugs: 24 hours), and on L 1210 and P 388 leukemia in mice in comparison with daunomycin.
^(a) Mice were treated intraperitoneally on day 1 after tumor cell
^(b) Evaluated on the basis of the macroscopic autopsy findings.

With `COc1cccc2c1C(=O)c1c(cc3c(c1O)[C@@H](O[C@H]1C[C@H](N)[C@H](O)[C@H](C)O1)C[C@](O)(C(=O)CO)C3)C2=O` [Glycoside A, 11-deoxyadriamycin] the Toxic deaths was 1/10.
